Screening data: PubChem BioAssay, National Center for Advancing Translational Sciences (NCATS)
Sampled rows, rich in hits. Any-hit rate of the full collection: about 13%.
KDM4E inh: JMJD2E (human) inhibition | B2RXH2 | JMJD2E catalytic domain, FDH-coupled NADH fluorescence (FDH is formaldehyde dehydrogenase) | Potency, µM (doses to about 57.1 µM), inactives show at the top dose activity change, negative = inhibition, actives largely listed as inhibitors | 230,000 tested, 1.6% active | AID 2147; active = well fitted inhibition curve with a large enough effect, not every such curve was filed as active; inconclusive = small, poorly fitted or top-dose-only effect, or another doubt; inactive = no such curve, though single readings can be large or run the other way;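 also: potency is read from the fitted curve at half-maximal effect; 0% = wells with enzyme and -100% = buffer wells without enzyme; nearly all actives have a fitted effect of over 50% in size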
ALDH1A1 inh: inhibitors of human aldehyde dehydrogenase 1A1; P00352; 220,000 tested, 7.3% active; Potency, µM (highest dose often 75.3 µM), inactives show at the top dose activity, negative = inhibition, hits mostly inhibitors; Purified ALDH1A1, NADH fluorescence, propionaldehyde substrate; active = well fitted inhibition curve with a large enough effect, not every such curve was filed as active; inconclusive = small, poorly fitted or top-dose-only effect, or another doubt; inactive = no such curve, though single readings can be large or run the other way;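 also: potency is read from the fitted curve at half-maximal effect; plate controls were no enzyme wells and a reference inhibitor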
G9a inh: blocks human histone lysine methyltransferase G9a | 350,000 tested, 8.8% active | G9a H3K9 monomethylation, AlphaScreen, 2 h | Potency, µM (series often up to 102 µM), for the others: at the top dose activity, negative = inhibition, most hits filed as inhibitors; also: potency is read from the fitted curve at half-maximal effect; % is scaled to controls: 0 for no effect and ±100 for the full control effect; nearly all actives have a fitted effect of over 75% in size
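Compounds were preincubated with 20 nM G9a for 15 min, after which biotinylated H3K9 peptide (500 nM) and SAM (20 uM) started a 2 h room-temperature reaction. Monomethylated product was quantified by antibody-based AlphaScreen chemiluminescence.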
LMNA splice mod: changes lamin A minigene splicing in HeLa cells. HeLa LMNA splicing GFP/RFP minigene ratio, 48 h. 200,000 tested, 0.01% active. Potency, µM (highest dose often 46.1 µM), for the others: top-dose ratio change, negative = inhibition, hits mostly inhibitors. AID 1487; active = well fitted inhibition curve with a large enough effect in the signal ratio, with a control signal flat, not every such curve was filed as active; inconclusive = small, poorly fitted or top-dose-only effect, or effect the other way, or a change in a side signal; the % refers to the signal ratio; also: potency is read from the fitted curve at half-maximal effect; % is scaled to controls: 0 for no effect and ±100 for the full control effect
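S3 HeLa cells stably expressing lamin A-EGFP splicing minigene plus DsRed2, 600 cells/well, 48 h compound exposure at 37C. Laser-scanning cytometry; analysed as GFP (500-530 nm)/RFP (575-640 nm) total intensity ratio; 0.5% DMSO vehicle.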
miR-21 reporter: raises the signal of a miR-21 reporter; Potency, µM (doses to about 38.3 µM), inactives show top-dose reporter change, positive = more light; HeLa miR-21 FLuc reporter, luciferase, 48 h; AID 2288; 340,000 tested, under 10 active; active = well fitted rising curve with a large enough effect; inconclusive = small, poorly fitted or top-dose-only effect; inactive = no such curve, though single readings can be large or run the other way;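 further: % of control where 0% means no effect; miR-21 action dims this reporter so a rising signal means less miR-21 action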
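Using DMEM plus 10% FBS, HeLa miR-21-FLuc cells are incubated with test compounds (final up to about 40uM) for 48 hours; firefly luciferase signal is then imaged following reagent-mediated lysis.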
Sfp inh: Sfp phosphopantetheinyl transferase inhibition; Q9F4F7; Biochemical Sfp PPTase activity, qHTS; Potency, µM, for the others: max response, negative = inhibition, most hits filed as inhibitors; 310,000 tested, 3.5% active; AID 1490; active = well fitted inhibition curve with a large enough effect; inconclusive = small, poorly fitted or top-dose-only effect, or another doubt; inactive = no such curve, though single readings can be large or run the other way;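 also: the enzyme is Sfp with the accession as filed and its product quenches rhodamine fluorescence; potency is read from the fitted curve at half-maximal effect; 0% = enzyme reaction without inhibitor and -100% = no enzyme wells; top concentration of the series not given in the record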
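Sfp 15 nM + cpd, 15 min RT; start w/ rhodamine-CoA 5 uM, BHQ-2-YbbR 12.5 uM (final); 50 mM Hepes pH 7.6, 10 mM MgCl2, 0.01% NP-40, 0.01% BSA; read 525/598 nm at 0 and 30 min.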
Starred values were filed as active, the others as inactive; u = inconclusive; x = not tested or not shown; [ ] = remark or other dose. Unless noted, calls follow the shape of the dose curve; as a rule, active = well fitted curve in the direction sought with a large enough effect; inconclusive = small, poorly fitted or top-dose-only effect, or another doubt; inactive = no such curve, though single readings can be large; an effect the other way counts as inactive or inconclusive.

Abbreviations – A = KDM4E inh; B = ALDH1A1 inh; C = G9a inh; D = LMNA splice mod; E = miR-21 reporter; F = Sfp inh
1. O=c1[nH]cnc2c1sc1nc(-c3ccccc3)c3c(c12)CCCC3
  A: u | B: -4% | C: 22%[59 µM] | D: -9% | E: -8% | F: -6%
2. O=C(O)CSc1ncnc2c1sc1nc(-c3ccccc3)c3c(c12)CCC3
  A: 4% | B: x | C: 40µM* | D: x | E: -7% | F: 5%
3. CC(C)c1nc2sc3c(SCC(=O)NCc4ccco4)ncnc3c2c2c1CCC2
  A: 2% | B: u | C: 45µM* | D: 15% | E: -20% | F: 25µM*
4. COc1ccc(NC(=O)c2noc3c2CCCC3)cc1Cl
  A: x | B: x | C: -13%[59 µM] | D: 4%[46 µM] | E: -66% | F: x
5. COc1ccc(C(C)=O)c(OC(=O)c2ccco2)c1
  A: 3% | B: u | C: 45µM* | D: 2% | E: -5% | F: -28%
6. COc1ccc(C(C)=O)c(OC(=O)c2ccc(OC)c(OC)c2)c1
  A: -5% | B: -12% | C: 14%[12.7 µM] | D: -15% | E: -2% | F: 6%
7. COc1ccc(C(=O)Nc2cccc(OC(=O)c3ccco3)c2)cc1
  A: x | B: x | C: 50µM* | D: x | E: -8% | F: 8%
8. O=C(Cc1ccccc1)NC1CC(=O)N(c2ccc3c(c2)OCCO3)C1 (stereo not given)
  A: x | B: x | C: 4%[59 µM] | D: 8%[46 µM] | E: -1% | F: x
9. Cc1ccccc1N(C(=O)c1ccccn1)C(C(=O)NCc1ccccc1)c1ccncc1 (stereo not given)
  A: x | B: x | C: 45% | D: x | E: 1% | F: -3%
10. O=C(NCc1ccccc1)C(c1ccncc1)N(C(=O)c1ccccn1)c1ccccc1 (stereo not given)
  A: x | B: x | C: 22µM* | D: x | E: -19% | F: 12%
11. CCC(C)NC(=O)c1ccc2c(c1)sc1nc(-c3ccc(OC)cc3)cn12 (stereo not given)
  A: x | B: x | C: -11%[59 µM] | D: 7%[46 µM] | E: 0% | F: x
12. COc1ccc(C(=O)Nc2cc(C(=O)c3ccccc3)c(C)oc2=O)cc1
  A: -7% | B: 20µM* | C: 8.9µM* | D: 0% | E: u | F: 10µM*
13. COC(=O)c1cc(NC(=O)c2ccc(C)cc2)c(=O)oc1C
  A: 7% | B: -5% | C: u | D: x | E: -24% | F: -10%
14. COC(=O)c1cc(NC(=O)c2ccccc2)c(=O)oc1C
  A: 1% | B: u | C: 45µM* | D: x | E: -1% | F: -11%
15. Cc1oc(=O)c(NC(=O)c2cccc(Cl)c2)cc1C(=O)c1ccccc1
  A: -15% | B: 8.9µM* | C: -18%[0.0925 µM] | D: u | E: 24% | F: 8.9µM*

Ordered by formula weight (ascending): some entries from above
Abbreviations – A = KDM4E inh; B = ALDH1A1 inh; C = G9a inh; D = LMNA splice mod; E = miR-21 reporter; F = Sfp inh
13. COC(=O)c1cc(NC(=O)c2ccc(C)cc2)c(=O)oc1C
  A: 7% | B: -5% | C: u | D: x | E: -24% | F: -10%
11. CCC(C)NC(=O)c1ccc2c(c1)sc1nc(-c3ccc(OC)cc3)cn12 (stereo not given)
  A: x | B: x | C: -11%[59 µM] | D: 7%[46 µM] | E: 0% | F: x
2. O=C(O)CSc1ncnc2c1sc1nc(-c3ccccc3)c3c(c12)CCC3
  A: 4% | B: x | C: 40µM* | D: x | E: -7% | F: 5%

(continued)
Abbreviations – A = KDM4E inh; B = ALDH1A1 inh; C = G9a inh; D = LMNA splice mod; E = miR-21 reporter; F = Sfp inh
16. CO/N=C\Cc1oc(=O)c(NC(=O)c2ccccc2)cc1C(=O)OC
  A: u | B: 22µM* | C: 32µM* | D: 9% | E: 2% | F: -10%
17. N#Cc1ccccc1OCC(=O)N1CCN(c2ccccc2)CC1
  A: x | B: x | C: 2%[59 µM] | D: x | E: -11% | F: x
18. CNS(=O)(=O)c1cn(CC(=O)N2CCN(c3cc(C)ccc3C)CC2)cc1S(=O)(=O)NC
  A: x | B: x | C: -1%[59 µM] | D: x | E: 0% | F: x
19. CN1CCc2nc(N)nc(-c3nc(N)nc4c3CN(C)CC4)c2C1
  A: x | B: 3%[13.5 µM] | C: x | D: x | E: x | F: x
20. CC(=O)c1cc(NC(=O)c2ccc([N+](=O)[O-])cc2)c(=O)oc1C
  A: -7% | B: u | C: 22µM* | D: u | E: 13% | F: 16µM*
21. O=C(N/N=C/c1ccc(N2CCOCC2)cc1)c1ccccc1OCCOc1ccccc1
  A: u | B: u | C: 8% | D: -19%[46 µM] | E: 15% | F: -3%
22. O=C(Nc1nc2c(s1)CN(Cc1ccccc1)CC2)C1CCC1
  A: -5% | B: u | C: 45µM* | D: x | E: -45% | F: -7%
23. CC(=O)Nc1cccc(-c2nc3ccccc3s2)c1
  A: u | B: -7% | C: x | D: 11%[46 µM] | E: -43% | F: -4%
24. CC(=O)Nc1cccc(-c2cc(C)c3cc4c(cc3n2)OCO4)c1
  A: x | B: x | C: 50µM* | D: x | E: -59% | F: 2%
25. O=C(Nc1ccc(Cl)cc1)c1cc(S(=O)(=O)N2CCCc3ccccc32)ccc1F
  A: x | B: x | C: -11%[59 µM] | D: u | E: 13% | F: x
26. O=C(CCCn1c(SCc2cccc(F)c2)nc2ccccc2c1=O)NCC1CCCO1 (stereo not given)
  A: 11% | B: 16µM* | C: -5%[59 µM] | D: x | E: -1% | F: -9%
27. N#CCSc1nc2ccccc2c(=O)n1CCCC(=O)NCC1CCCO1 (stereo not given)
  A: -4% | B: 28µM* | C: -5% | D: x | E: 1% | F: 12%
28. O=C(CCCn1c(SCC(=O)NCC2CCCO2)nc2ccccc2c1=O)NCc1ccccc1 (stereo not given)
  A: 1% | B: 1% | C: 15% | D: 6% | E: 0% | F: 17%
29. C=C(C)Cn1c(SCC#N)nc2ccccc2c1=O
  A: -10% | B: 10µM* | C: 21%[59 µM] | D: -3% | E: -7% | F: -4%
